One may read the pIC50 as −log10 of the IC50, conventionally taken in molar units.

Each structure is given as a SMILES string. pIC50: −log10 of the molar value.

The assay addresses human recombinant ATX (Homo sapiens (Human), UniProt Q13822). As to the kind of experiment: Autotaxin (ATX) activity Quanta Red assay. The class given is biochemical. Particulars: 15 μM Rac-1-Palmitoyl-glycero-3-phosphocholine, 2 hours room temperature, determined in duplicate. As to the method: The ATX enzyme assay (Quanta Red assay) described in accompanying Example section may be used to measure the pharmacological effects of the compounds of the present invention.
Autotaxin (ATX) Activity Quanta Red Assay
Measuring ATX activity using an enzyme coupled Quanta Red assay (Thermo Scientific—Pierce Protein Research Products, Product #15159) was determined as follows. 8 μL human recombinant ATX (final concentration 0.8 μg/mL) in 1× Assay buffer containing 50 mM Tris-HCl (pH 8.0), 5 mM CaCl2 was added to an opaque black flat-bottom 384-well plate (Corning, #3575) containing 2 μL test compound in 40% DMSO (4% final DMSO concentration). 10 μL of Quanta Red, Horseradish peroxidase (HRP), Choline Oxidase (CO), Rac-1-Palmitoyl-glycero-3-phosphocholine solution (final concentration 1:250 for Quanta Red, 0.5units/ml HRP, 0.5units/ml CO, 15 μM Rac-1-Palmitoyl-glycero-3-phosphocholine) in 1× assay buffer (as described previously) was added to each well to start the reaction and the plate was incubated at room temperature for 2 hours. The reaction was stopped after 2 hours with a 20 μL addition of Quanta Red Stop solution (1:20 dilution in distilled water). The above-described mixture with DMSO alone was used as a positive control whereas that with DMSO alone without ATX was taken as a negative control.
For each test compound, ten concentrations were measured covering a range of 6.1 nM to 120 μM to determine IC50 values. The top concentration was decreased to 1.2 μM when a test compound's IC50 value was evaluated in low nanomolar range. Fluorescence was determined in a BMG Labtech Pherastar plus plate reader ([…]). Data were analysed using Excel fit software. IC50 values were determined in duplicate.
Regarding `O=C(NC1CC(=O)N(c2ccc(CN3CCCCC3)cc2)C1)c1nnc(CCc2ccc(Cl)cc2)s1` (stereo not drawn) [Compound F139, 5-[2-(4-chlorophenyl)ethyl]-N-[5-oxo-1-[4-(1-piperidylmethyl)phenyl]pyrrolidin-3-yl]-1,3,4-thiadiazole-2-carboxamide], the pIC50 is 8.30. On to `Cn1nc(CCc2ccc(Cl)cc2)cc1NC(=O)C1CC(=O)N(c2ccc(CN3CCOCC3)cc2)C1` (stereo not drawn) [Compound F202, N-[5-[2-(4-chlorophenyl)ethyl]-2-methyl-pyrazol-3-yl]-1-[4-(morpholinomethyl)phenyl]-5-oxo-pyrrolidine-3-carboxamide], for which the pIC50 was 5.81. Regarding `O=C(N[C@H]1CC(=O)N(c2ccc(CN3CCCCC3)cc2)C1)c1nnc(CCc2ccc(Cl)cc2)s1` [Compound F133, 5-[2-(4-chlorophenyl)ethyl]-N-[(3S)-5-oxo-1-[4-(1-piperidylmethyl)phenyl]pyrrolidin-3-yl]-1,3,4-thiadiazole-2-carboxamide], the pIC50 is 8.52.

For the origin of these results see US10138230B2, “Autotaxin inhibitors” (CANCER RESEARCH TECHNOLOGY LIMITED, priority 2015, dated 2018).
